Tested on: natural killer (NK) cells (CD56)
Assay: FastImmune CD69 NK-cell activation in whole blood cultures
Format: cell-based, human
Conditions: for NK-cell Activation, Activation (%): 24 h blood culture; for NK-cell Activation, % Increase: increase over untreated control
Text: In vitro lymphocyte activation represents a standard approach for evaluating cell-mediated responses to a variety of stimuli including immunostimulatory botanical extracts. The FastImmune assay system monitors the expression of the early activation marker CD69 in whole blood after stimulation with extracts.
CD19 antigen is present on human B lymphocytes at all stages of maturation and is not present on resting or activated T-lymphocytes. CD19/CD69/CD45 combination can be used to identify activated B cell population. CD56 antigen is present on natural killer (NK) cells and antigen intensity increases with NK-cell activation.
Blood samples were collected from healthy volunteers and 250 μl blood sample were incubated in 48-well plates with increasing concentrations of compound along with appropriate positive controls (recommended by Becton Dickinson Biosciences, CA) for each subset. CD2/CD2R and Phorbol ester (PMA) were used as controls for T-lymphocyte activation studies. Pokeweed (PWM) mitogen was used as positive control for B-cell activation and IL-2 was used for activating NK-cells in blood cultures. T2CA, a characterized polysaccharide complex evaluated in these assays was also used as a control. The blood cultures were incubated at 37° C. in a CO2 incubator for 24 h. On the next day, 20 μl of specific antibody mix, [CD4-FITC/CD69-PE/CD45-PerCP (T-helper/inducer cell activation), CD8-FITC/CD69-PE/CD3-PerCP (T-cytotoxic/suppressor cell activation), CD19-FITC/CD69-PE/CD45-PerCP (B-cell activation) and CD56-FITC/CD69-PE/CD45-PerCP (NK-cell activation)] was dispensed into separate flow tubes and 50 μl blood sample was mixed with antibody and incubated for 30 minutes at room temperature in the dark. The blood-antibody mix was lyzed in a Coulter Epics Q-prep work station using Immunoprep kit and run on a Beckman Coulter Elite flow cytometer using a 3-color protocol. The percentage of activated T-cell subsets, B-cells and NK-cells and the percentage increase over untreated control were calculated and plotted against compound concentrations.

IL-2: used for activating NK-cells in blood cultures
NK-cell Activation, Activation (%) (3.3 ng/ml): 8.80%
NK-cell Activation, % Increase (3.3 ng/ml): 175.65%
NK-cell Activation, Activation (%) (6.6 ng/ml): 13.30%
NK-cell Activation, % Increase (6.6 ng/ml): 383.77%
